According to PubChem BioAssay AID540263 (National Center for Advancing Translational Sciences (NCATS), 2011):
Screen size: about 340,000 compounds; about 100 (0.029%) were called active. Another 8% or so got no clear call; they are omitted. The entries come from a sample that favours actives as a whole. A number with no mark means an inactive call. The call rests on the fitted dose curve.

By UniProt entry, the sequences of proteins in these tests, tags left out.
UniProt Q14974, whole entry, looked up: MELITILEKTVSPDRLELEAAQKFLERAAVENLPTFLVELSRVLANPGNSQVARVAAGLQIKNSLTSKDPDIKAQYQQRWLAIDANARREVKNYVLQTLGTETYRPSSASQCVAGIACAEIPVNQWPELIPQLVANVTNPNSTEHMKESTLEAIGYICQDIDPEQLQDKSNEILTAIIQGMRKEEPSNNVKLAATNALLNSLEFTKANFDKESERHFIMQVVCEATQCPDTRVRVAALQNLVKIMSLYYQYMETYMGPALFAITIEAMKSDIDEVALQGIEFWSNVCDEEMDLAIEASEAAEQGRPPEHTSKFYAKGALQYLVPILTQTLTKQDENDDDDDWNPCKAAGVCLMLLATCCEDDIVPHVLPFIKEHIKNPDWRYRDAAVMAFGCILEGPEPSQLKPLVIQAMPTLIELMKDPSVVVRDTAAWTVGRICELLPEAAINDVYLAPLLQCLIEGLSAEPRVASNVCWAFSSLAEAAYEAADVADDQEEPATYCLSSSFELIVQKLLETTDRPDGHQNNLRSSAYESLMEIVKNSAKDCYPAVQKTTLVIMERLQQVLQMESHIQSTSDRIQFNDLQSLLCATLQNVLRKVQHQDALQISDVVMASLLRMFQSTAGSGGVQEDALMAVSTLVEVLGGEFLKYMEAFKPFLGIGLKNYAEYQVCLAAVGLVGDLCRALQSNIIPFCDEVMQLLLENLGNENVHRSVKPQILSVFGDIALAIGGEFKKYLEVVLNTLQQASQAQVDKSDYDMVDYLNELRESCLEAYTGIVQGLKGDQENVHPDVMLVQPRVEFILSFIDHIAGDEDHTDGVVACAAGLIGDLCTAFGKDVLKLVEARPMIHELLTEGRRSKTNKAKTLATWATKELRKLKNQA

target: Importin subunit beta-1 (Homo sapiens) (UniProt Q14974); experiment: qHTS Assay for Inhibitors of Rango (Ran-regulated importin-beta cargo) - Importin beta complex formation; details: Rango CFP/YFP FRET sensor + importin beta, 45 min; series mostly up to 92.2 µM; inhibition of complex formation: at the top concentration; further: nearly all actives have a fitted effect of over 15% in size;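 on inhibition of complex formation: 0% = DMSO wells and 100% = buffer wells lacking importin beta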
Text: NIH Molecular Libraries Probe Production Centers Network [MLPCN] NIH Chemical Genomics Center [NCGC] MLPCN Grant: R03 MH090808-01A1 Assay Submitter (PI): Petr Kalab NCGC Assay Overview: The small GTPase Ran regulates transport of macromolecules between the nucleus and the cytoplasm (nuclear transport) and has important functions in mitotic spindle assembly, nuclear envelope (NE) formation and nuclear pore complex (NPC) assembly. RanGTP gradient is thought to promote spindle assembly by providing a spatial clue to microtubule nucleation and Aurora A activation. Because the localized release and binding of importin alpha cargo relays this spatial clue to SAFs, inhibitors of the Rango - importin beta complex can then be used in further understanding their role in cell cycle specifically in mitosis progression. […] Activation of Aurora A has been linked to different types of cancer and a number of Aurora kinase inhibitors are being developed as potential canter therapeutics therefore, identified inhibitors of this complex could be developed into potential anti-mitotic probes for cancer treatment. Purified recombinant proteins Rango and importin beta were provided by the assay submitter. The assay used a fluorescence resonance energy transfer (FRET) Rango biosensor that contains the IBB of human snurportin 1 flanked by yellow fluorescent protein (EYFP) at the amino terminus and cerulean CFP10 at the carboxy terminus. […] Inhibitors will therefore be identified based on the ability to interfere with the FRET signal decrease. DMSO treated and no importin beta (buffer only) wells were used as negative and positive controls respectively. FRET readings were obtained at two time points. FRET reading prior to importin beta addition (pre-read) were used flag potential compound interference; FRET reading after importin beta addition (post-read) were used to identify inhibitors using the FRET ratio parameter.
NCGC Assay Protocol Summary: Two and a half uL/well of Rango-buffer solution (50 nM Rango, 1x PBS, 1mM DTT, 0.02% Tween-20, 0.1% BSA final concentrations) was dispensed into 1536-well assay plates (Greiner, solid black medium-binding plates) with Aurora Discovery BioRAPTR Flying Reagent Dispenser (FRD; Beckton-Dickenson). Compound solution (23 nL) was transferred to the assay plate using Kalypsys pin tool equipped with a 1536-pin tool and incubated at room temperature for 5 min followed by a FRET pre-read using the PerkinElmer Envision plate reader. Two and a half uL/well of Importin beta - buffer solution (0.125 microM importin beta, 1x PBS, 1mM DTT, 0.02% Tween-20, 0.1% BSA final concentrations) were then added and incubated at room temperature giving a final reaction volume of 5uL. After 45min FRET post-read was obtained via the Envision plate reader using the same optics and settings as the pre-read (CFP/YFP optimized dual optical module D450/D505; excitation mirror CFP 430/24 nm; and emission filters CFP 486/10 nm and YFP 530/10 nm).
Potency means the concentration at half of the fitted maximal effect; tags describe the fitted curve by direction and shape.

Compound | inhibition of complex formation | Potency
CCC1([N+](=O)[O-])COC(c2ccc(C)cc2)OC1 (stereo not given) | 1.54% | –
COC(=O)c1ccc(NCc2cc(O)ccc2O)cc1 | -7.51% | –
CC(=O)c1ccc(NC(=O)C(C)OC(=O)c2ccc(NS(=O)(=O)c3ccc4[nH]c(=O)[nH]c4c3)cc2)cc1 (stereo not given) | 0.601% | –
CCN(CC)CCOc1ccc2c(c1)C(=NNC(=O)c1ccccn1)c1cc(OCCN(CC)CC)ccc1-2 | – | 46.1 µM (active)
CCOc1cc2ccccc2cc1C(=O)Nc1ccccn1 | 0.912% | –
Cc1cccc(OCC(=O)NCCCNC(=O)c2ccccn2)c1 | 3.28% | –
COC(=O)c1ccc(CNC(=O)Cn2cc(C)c(=O)[nH]c2=O)cc1 | -2.1% | –
CC(Nc1ccc([N+](=O)[O-])cc1[N+](=O)[O-])c1ccccc1 (stereo not given) | -0.617% | –
CCCN(C(=O)COC(=O)CNS(=O)(=O)c1ccc(NC(C)=O)cc1)C1CCS(=O)(=O)C1 (stereo not given) | 0.164% | –
CC(=NNC(=S)N1CCCCCC1)c1ccccn1 | -3.27% | –
CCOc1ccc(CCNC(=O)COC(=O)C2CCN(S(=O)(=O)c3ccccc3)CC2)cc1OCC | -2.12% | –
COc1ccc(/C(C)=N/NC(=O)c2ccc3nc[nH]c3c2)cc1 | -1.28% | –
O=C(N/N=C/c1ccc(Cl)c(Cl)c1)c1ccc2nc[nH]c2c1 | 2.08% | –
CC(=NNC(=O)c1ccc2nc[nH]c2c1)c1ccc(Br)cc1 | – | 51.7 µM (active)
COc1ccc(CCN2CC(C(=O)OCC(=O)NCc3ccccc3Cl)CC2=O)cc1OC (stereo not given) | 5.68% | –
COc1cc2c(cc1OC)C1C(=O)c3cc(OS(C)(=O)=O)c(OC)cc3C1N(C)C2=O (stereo not given) | -0.982% | –
O=C(Cc1ccc(NC(=O)C2CCCN(C(=O)C3CCCCC3)C2)cc1)Nc1cccc(C(=O)N2CCCCC2)c1 (stereo not given) | -3.72% | –
CCOC(=O)[C@H]1[C@H]2COc3ccc(Br)cc3[C@@H]2N2C(=O)CN(C)C(=O)[C@@]12C | -0.78% | –
O=C(NCCc1ccccc1)c1cccc(NC(=O)c2ccccc2)c1 | 0.414% | –
CC(=O)CSc1nc(CCc2ccccc2)c(C#N)c(=O)[nH]1 | -0.166% | –
COC1C(CO)OC(n2cnc3c(=S)nc(N)[nH]c32)C1O (stereo not given) | 5.99% | –
COc1ccc(Cn2cc(CN3CCS(=O)(=O)N(Cc4ccc(-c5cccc(Cl)c5)cc4)C(C)C3=O)nn2)cc1 (stereo not given) | 0.684% | –
CCN1C[C@@H]2[C@@H]3C(=O)N(Cc4ccccc4)C(=O)[C@@H]3[C@](C)(C1=O)N2C(=O)c1ccc(C(C)(C)C)cc1 | -0.393% | –
Cc1cc2c(cc1C)NC1(C[C@H]3CCC(=O)N4CC[C@@H](C1)[C@@H]34)C(=NC(C)(C)CC(C)(C)C)N2 (stereo not given in full) | -5.93% | –
O=C(OCCOc1ccccc1F)c1cc(S(=O)(=O)N2CCOCC2)ccc1F | -0.785% | –

Compound | inhibition of complex formation | Potency
O=C1/C(=C\c2ccc([N+](=O)[O-])cc2)CS(=O)(=O)C/C1=C/c1ccc([N+](=O)[O-])cc1 | -1.37% | –
FC(F)(F)c1ccc(-c2cccc3c2C2CC3CCN2Cc2ccccc2)cc1 (stereo not given) | -0.476% | –
CCOc1ccc(S(=O)(=O)N2CCN(C(=O)c3oc4ccccc4c3C)CC2)cc1 | 0.762% | –
Cc1nc(N)nc(Cl)c1CCC1OCCO1 | -0.198% | –
Cn1c(=O)[nH]c2c(c(C(=O)O)nn2C)c1=O | 2.54% | –
O=C(CC(=O)c1cccnc1)c1ccccc1 | -1.07% | –
O=C(O)C(c1cccs1)C1(O)CCCCC1 (stereo not given) | 2.58% | –
CC(=NNC(=O)c1ccncc1)c1ccc(Cl)c(Cl)c1 | 0.952% | –
Cc1ccc2c(O)c(Cc3ccccc3)c(=O)[nH]c2n1 | -0.948% | –
COc1ccc(OC)c(Cc2cnc3nc(N)nc(N)c3c2C)c1 | 1.02% | –
O=C1NC(=O)C(CCc2ccccc2)(c2ccccc2)N1 (stereo not given) | -0.134% | –
O=S(=O)(Nc1ccc2ccccc2c1)N1CCCCC1 | 1.21% | –
NC(=O)C1(Nc2ccc([N+](=O)[O-])cc2)CCCC1 | 1.99% | –
COc1cccc(-n2nc(C(=O)N3CCN(Cc4ccccc4)CC3)c3ccccc3c2=O)c1 | 0.18% | –
CCOC(=O)N1CCN(Cc2nc3ccc([N+](=O)[O-])cc3c(=O)n2-c2cccc(OC)c2)CC1 | – | 65.1 µM (active)
CCOC(=O)N1CCN(Cc2nc3cc(NC(C)=O)ccc3n2C)CC1 | 1.49% | –
C=CCn1c(=O)n(C)c2c(=O)n(C)c(=O)n(C)c21 | 0.323% | –
CCc1nnc(NC(=O)c2cc(S(=O)(=O)N3CCN(CC)CC3)ccc2Cl)s1 | -0.0496% | –
O=[N+]([O-])c1ccc(N2CCOCC2)cc1 | -0.532% | –
COC1=CC(=O)OC(c2ccc(OC)cc2)C1 (stereo not given) | 0.94% | –
C[C@@H]1NS(=O)(=O)c2cc(Cl)ccc2O[C@@H]1c1ccccc1 | 0.256% | –
Cc1onc(-c2c(F)cccc2Cl)c1C(=O)Nc1cccc(S(=O)(=O)N2CCCCC2)c1 | -3.64% | –
COc1cc(O)c2c(=O)c3c(O)c(O)ccc3oc2c1OC | 2.1% | –
COc1ccccc1C(=O)c1ccccc1C(=O)c1ccccc1 | 0.498% | –
CCc1c(Nc2ccccc2Cl)nc(N)[nH]c1=O | -2.61% | –
